Target: T1, NAD-dependent protein deacetylase sirtuin-2 (Homo sapiens) (UniProt Q8IXJ6)
T1 sequence (whole entry): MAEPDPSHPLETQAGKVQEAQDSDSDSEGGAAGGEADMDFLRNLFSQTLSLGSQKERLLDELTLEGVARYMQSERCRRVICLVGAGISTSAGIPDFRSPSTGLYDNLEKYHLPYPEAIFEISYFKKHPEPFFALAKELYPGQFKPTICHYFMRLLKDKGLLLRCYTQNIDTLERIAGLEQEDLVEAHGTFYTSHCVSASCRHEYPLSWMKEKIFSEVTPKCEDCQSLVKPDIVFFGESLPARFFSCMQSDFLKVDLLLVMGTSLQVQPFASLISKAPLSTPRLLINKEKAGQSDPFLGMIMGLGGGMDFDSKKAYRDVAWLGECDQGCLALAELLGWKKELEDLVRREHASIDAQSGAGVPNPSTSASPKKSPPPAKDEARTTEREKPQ
Assay: Inhibition of recombinant human SIRT2 expressed in baculovirus infected SF9 cells expression system using RHKK(Ac)W-NH2 as substrate at 10 uM measured after 20 mins by HPLC method
How it was run: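 SIRT2 at about 100 nM (nominal) started the reaction, without preincubation, in kit buffer pH 8.0 with 2 mM NAD+ and 250 μM RHKK(Ac)W-NH2. Final DMSO was 1%. Reactions ran 20 min at 37 °C, keeping conversion at 2–8%, and were stopped with TFA. Substrate and product were separated by C18 HPLC (10–50% B gradient) and detected at 220 nm. Peak areas gave % conversion. Results were reported as IC50 (95% CI) or % inhibition (SD), from at least duplicates.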

Point of comparison: `CC(C)c1c(CC(N)=O)[nH]c2ccc(Br)cc12`, inhibition 38%. Against it:
- CC(C)(C)c1c(CC(N)=O)[nH]c2ccc(Cl)cc12 — higher, 74%
- CC(C)c1c(CC(N)=O)[nH]c2ccc(Cl)cc12 — higher, 39%
- NC(=O)Cc1[nH]c2ccc(Cl)cc2c1Cc1ccccc1 — higher, 84%
- CCCc1c(CC(N)=O)[nH]c2ccc(Cl)cc12 — lower, 22%
- CCCCCc1c(CC(N)=O)[nH]c2ccc(Cl)cc12 — higher, 68%
- CCCCc1c(CC(N)=O)[nH]c2ccc(Cl)cc12 — higher, 42%
- Cc1c(CC(N)=O)[nH]c2ccc(Cl)cc12 — lower, 0.34%

Source: ChEMBL document CHEMBL4706521, “Synthesis of indole inhibitors of silent information regulator 1 (SIRT1), and their evaluation as cytotoxic agents” (Eur J Med Chem, 2020)
